Test results as given in PubChem BioAssay (NCI).
Some of these compounds have results that are not shown, active ones among them.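 Assay format: 96-well plates, 48-hour exposure. At the GI50, growth is halved.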

How the values were obtained:
Test in all cases: inhibition of tumour cell growth, NCI panel, 48 h; in the data active = GI50 below about 0.43 µM; inactive = the rest
786-0 renal = test system: 786-0 renal
A549 NSCLC = test system: A549 NSCLC
ACHN renal = test system: ACHN renal
CAKI-1 renal = test system: CAKI-1 renal
CCRF-CEM leukemia = test system: CCRF-CEM leukemia
COLO 205 colon = test system: COLO 205 colon
DU-145 prostate = test system: DU-145 prostate
EKVX NSCLC = test system: EKVX NSCLC
HCC-2998 colon = test system: HCC-2998 colon
HCT-116 colon = test system: HCT-116 colon
HCT-15 colon = test system: HCT-15 colon
HL-60(TB) leukemia = test system: HL-60(TB) leukemia
HOP-62 NSCLC = test system: HOP-62 NSCLC
HT29 colon = test system: HT29 colon
IGROV1 ovarian = test system: IGROV1 ovarian
K-562 leukemia = test system: K-562 leukemia
KM12 colon = test system: KM12 colon
LOX IMVI melanoma = test system: LOX IMVI melanoma
M14 melanoma = test system: M14 melanoma
MALME-3M melanoma = test system: MALME-3M melanoma
MCF7 breast = test system: MCF7 breast
MDA-MB-231 breast = test system: MDA-MB-231 breast
MDA-N = test system: MDA-N
MOLT-4 leukemia = test system: MOLT-4 leukemia
NCI-H226 lung = test system: NCI-H226 lung
NCI-H23 lung = test system: NCI-H23 lung
NCI-H522 lung = test system: NCI-H522 lung
NCI/ADR-RES ovarian = test system: NCI/ADR-RES ovarian
OVCAR-3 ovarian = test system: OVCAR-3 ovarian
OVCAR-5 ovarian = test system: OVCAR-5 ovarian
OVCAR-8 ovarian = test system: OVCAR-8 ovarian
PC-3 prostate = test system: PC-3 prostate
RPMI-8226 leukemia = test system: RPMI-8226 leukemia
RXF 393 renal = test system: RXF 393 renal
SF-268 CNS = test system: SF-268 CNS
SF-295 CNS = test system: SF-295 CNS
SF-539 CNS = test system: SF-539 CNS
SK-MEL-28 melanoma = test system: SK-MEL-28 melanoma
SK-MEL-5 melanoma = test system: SK-MEL-5 melanoma
SK-OV-3 ovarian = test system: SK-OV-3 ovarian
SN12C renal = test system: SN12C renal
SNB-19 CNS = test system: SNB-19 CNS
SNB-75 CNS = test system: SNB-75 CNS
SR leukemia = test system: SR leukemia
SW-620 colon = test system: SW-620 colon
T-47D breast = test system: T-47D breast
TK-10 renal = test system: TK-10 renal
U251 CNS = test system: U251 CNS
UACC-257 melanoma = test system: UACC-257 melanoma
UACC-62 melanoma = test system: UACC-62 melanoma
UO-31 renal = test system: UO-31 renal

Measured: GI50

CC(C)C(O)(C(=O)O/C=C1\CC2CCN1CC2)c1ccccc1 (stereo unspecified)
inactive: 786-0 renal > 100 µM | A549 NSCLC > 100 µM | ACHN renal > 100 µM | CAKI-1 renal > 100 µM | CCRF-CEM leukemia 37.6 µM | COLO 205 colon > 100 µM | DU-145 prostate > 100 µM | EKVX NSCLC 66.2 µM | HCC-2998 colon 35 µM | HCT-116 colon > 100 µM | HCT-15 colon > 100 µM | HL-60(TB) leukemia 52.9 µM | HOP-62 NSCLC > 100 µM | HT29 colon > 100 µM | IGROV1 ovarian > 100 µM | K-562 leukemia 54.8 µM | KM12 colon > 100 µM | LOX IMVI melanoma > 100 µM | M14 melanoma > 100 µM | MALME-3M melanoma > 100 µM | MCF7 breast > 100 µM | MDA-MB-231 breast > 100 µM | MDA-N > 100 µM | MOLT-4 leukemia 51.9 µM | NCI-H226 lung > 100 µM | NCI-H23 lung > 100 µM | NCI-H522 lung > 100 µM | NCI/ADR-RES ovarian 18.7 µM | OVCAR-3 ovarian > 100 µM | OVCAR-5 ovarian > 100 µM | OVCAR-8 ovarian > 100 µM | PC-3 prostate > 100 µM | RPMI-8226 leukemia 46.3 µM | RXF 393 renal > 100 µM | SF-268 CNS > 100 µM | SF-295 CNS > 100 µM | SF-539 CNS > 100 µM | SK-MEL-28 melanoma > 100 µM | SK-MEL-5 melanoma > 100 µM | SK-OV-3 ovarian > 100 µM | SN12C renal > 100 µM | SNB-19 CNS > 100 µM | SNB-75 CNS > 100 µM | SR leukemia 56.3 µM | SW-620 colon > 100 µM | T-47D breast 99.4 µM | TK-10 renal > 100 µM | U251 CNS > 100 µM | UACC-257 melanoma > 100 µM | UACC-62 melanoma > 100 µM | UO-31 renal 21 µM

C=C(C)C#CC(O)(C(=O)OC1CCN(C)CC1)c1cccs1 (stereo unspecified)
inactive: 786-0 renal > 100 µM | A549 NSCLC > 100 µM | ACHN renal > 100 µM | CAKI-1 renal > 100 µM | CCRF-CEM leukemia > 100 µM | COLO 205 colon > 100 µM | DU-145 prostate > 100 µM | EKVX NSCLC > 100 µM | HCC-2998 colon > 100 µM | HCT-116 colon > 100 µM | HCT-15 colon > 100 µM | HL-60(TB) leukemia > 100 µM | HOP-62 NSCLC > 100 µM | HT29 colon > 100 µM | IGROV1 ovarian > 100 µM | K-562 leukemia > 100 µM | KM12 colon > 100 µM | LOX IMVI melanoma > 100 µM | M14 melanoma > 100 µM | MALME-3M melanoma > 100 µM | MCF7 breast > 100 µM | MDA-MB-231 breast > 100 µM | MDA-N > 100 µM | MOLT-4 leukemia > 100 µM | NCI-H226 lung > 100 µM | NCI-H23 lung > 100 µM | NCI-H522 lung > 100 µM | OVCAR-3 ovarian > 100 µM | OVCAR-5 ovarian > 100 µM | OVCAR-8 ovarian > 100 µM | PC-3 prostate > 100 µM | RPMI-8226 leukemia > 100 µM | RXF 393 renal > 100 µM | SF-268 CNS > 100 µM | SF-295 CNS > 100 µM | SF-539 CNS > 100 µM | SK-MEL-28 melanoma > 100 µM | SK-MEL-5 melanoma > 100 µM | SK-OV-3 ovarian > 100 µM | SN12C renal > 100 µM | SNB-19 CNS > 100 µM | SNB-75 CNS > 100 µM | SR leukemia > 100 µM | SW-620 colon > 100 µM | T-47D breast > 100 µM | TK-10 renal > 100 µM | U251 CNS > 100 µM | UACC-257 melanoma > 100 µM | UACC-62 melanoma > 100 µM | UO-31 renal 89.5 µM
